Our source for the Ki values is patent publication EP4631938A1, “NITROGEN-CONTAINING HETEROCYCLE WITH SEROTONIN RECEPTOR-BINDING ACTIVITY AND CARBOCYCLIC DERIVATIVE” (Shionogi & Co., Ltd, priority 2022, dated 2024).

Amino acid sequences for entries named in this document (tags omitted). Residues count along the entry.
UniProt P28335, 33-458 limits assumed: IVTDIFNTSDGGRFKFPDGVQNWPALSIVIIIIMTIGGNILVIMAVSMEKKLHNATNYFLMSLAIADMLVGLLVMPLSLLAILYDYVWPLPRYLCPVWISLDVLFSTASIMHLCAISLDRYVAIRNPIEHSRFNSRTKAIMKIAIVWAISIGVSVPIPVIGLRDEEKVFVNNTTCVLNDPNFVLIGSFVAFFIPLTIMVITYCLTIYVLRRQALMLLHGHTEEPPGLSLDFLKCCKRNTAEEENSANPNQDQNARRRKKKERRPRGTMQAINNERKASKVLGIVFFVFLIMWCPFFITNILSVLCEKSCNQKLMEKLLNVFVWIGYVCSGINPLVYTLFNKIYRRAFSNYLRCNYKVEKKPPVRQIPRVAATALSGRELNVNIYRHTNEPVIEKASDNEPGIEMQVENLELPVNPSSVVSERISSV

The test addresses human recombinant 5-HT2C receptor (Homo sapiens, UniProt P28335). Kind of test: Test Example 2-2: 5-HT2C receptor binding inhibition test ([3H]-Mesulergine; non-specific ligand Ketanserin). The settings on record: read-out: h 5-HT2C Ki, non-specific binding with 500 µmol/L Ketanserin, 37°C, 2 hours. The procedure: • Cell membrane: 0.5 µg of Jump-In HEK cell membrane (expressing human recombinant 5-HT2C receptor) per well • Assay buffer: 50 mmol/L Tris-HCl (pH 7.4) containing 120 mmol/L NaCl, 1 mmol/L MgCl2·6H2O, 5 mmol/L KCl, 0.1% BSA, and 2 mmol/L CaCl2 • Radioactive ligand: [^3H]-Mesulergine with a final concentration of around Kd value calculated by the following method • Non-specific ligand: Ketanserin at a final concentration of 500 µmol/L
The Kd value is calculated when the lot of the cell membrane is changed. 1 mmol/L non-specific binding calculating compound dissolved in DMSO or DMSO is previously dispensed to the microplate by 0.5 µL, and the cell membrane is diluted with an Assay buffer. […] The radioactivity of [^3H]-Mesulergine bound to the 5-HT2C receptor is measured using Microbeta2 (PerkinElmer) at a measurement time of 1 min/well. The Saturation curve is drawn from the measured value, and the Kd value is calculated from the slope of the Scatchard Plot.
A compound solution dissolved in DMSO is dispensed to a microplate by 0.5 µL, and a cell membrane and a hot ligand are each diluted with an Assay buffer. […] The radioactivity of [^3H]-Mesulergine bound to the 5-HT2C receptor is measured using Microbeta2 (PerkinElmer) at a measurement time of 1 min/well. […] Finally, the Ki value is calculated from the dose-response curve. […]

pKi: −log10 of the molar value.

Consider `Cc1nc(C)c(-c2cc(Nc3ncc(C(F)(F)F)cc3F)c(F)cc2OCCO)c(C)n1` [Compound I-146], for which the pKi was 8.42.

For `Cn1ncc(Br)c1-c1cc(Nc2ncc(Cl)cn2)ccc1OCCO` [Compound I-119], the pKi is 8.68.
